Molecular target: CYP2C19 (Homo sapiens, UniProt P33261)
Test: Luminescent P450-Glo recombinant human CYP2C19 inhibition assay
Excerpt: The inhibitory effects of B. monnieri standardized extract and the constituents bacoside A, bacoside A3, bacopaside II, bacopaside X, bacopasaponin C and bacopaside I on human cytochrome P450 enzyme were examined using an in vitro luminescent assay. The P450-Glo™ substrates are converted by CYP enzymes to a luciferin product that reacts with a Luciferin Detection Reagent to produce light. The amount of light produced is directly proportional to the CYP enzyme activity. The net signals from untreated (added with buffer or solvent) CYP reactions represent total CYP activity (without any inhibition = 100%). […] The test compounds that inhibit CYP enzymes caused a reduction in CYP activity and therefore generated less light/signal. […]
The enzyme assay was performed in 96-well white bottom flat plates (Nunc, Roskilde, Denmark). […] For the “untreated” (the values from these wells represent total CYP activity) and “minus-P450 control” wells (the values from these wells represent the CYP-independent background luminescence of the assay), 12.5 μL of vehicle (1% DMSO) was added. […] Before reading, the plate was incubated at room temperature for 20 min to stabilize the luminescent signal. The luminescence in all of the samples was measured using an Infinite F200 plate reader (Tecan, Männedorf, Switzerland).

Protein sequences, listed by entry. Tags and fused reporters are not part of them.
UniProt P33261, whole entry: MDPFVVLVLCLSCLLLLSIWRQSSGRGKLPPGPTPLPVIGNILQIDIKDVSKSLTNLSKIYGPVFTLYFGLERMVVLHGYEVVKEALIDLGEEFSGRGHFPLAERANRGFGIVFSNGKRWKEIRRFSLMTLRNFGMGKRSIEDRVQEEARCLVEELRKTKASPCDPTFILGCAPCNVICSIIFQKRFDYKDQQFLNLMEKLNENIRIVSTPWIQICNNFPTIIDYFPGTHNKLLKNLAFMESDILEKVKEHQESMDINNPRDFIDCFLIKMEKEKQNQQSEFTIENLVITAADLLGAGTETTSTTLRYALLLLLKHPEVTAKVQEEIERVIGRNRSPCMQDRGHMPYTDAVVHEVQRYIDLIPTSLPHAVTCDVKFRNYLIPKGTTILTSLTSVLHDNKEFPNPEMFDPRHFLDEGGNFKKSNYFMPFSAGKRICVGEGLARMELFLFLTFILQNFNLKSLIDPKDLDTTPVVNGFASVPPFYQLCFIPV

- IC50: 17.7 µM
Structure (SMILES): Cc1c(C)c2c(c(C)c1O)CCC(C)(COc1ccc(CC3SC(=O)NC3=O)cc1)O2 (stereo not shown) [troglitazone, reference compound]

Reference: paper PMC6271976, “Inhibition of Human Cytochrome P450 Enzymes by Bacopa monnieri Standardized Extract and Constituents” (Molecules, 2014)
